Values of other authors, collected in publication PMC10459693, “Toward Stability Enhancement of NTS1R-Targeted Radioligands: Structural Interventions on [^99mTc]Tc-DT1” (Pharmaceutics, 2023).

Protein sequences, listed by entry. Tags and fused reporters are not part of them.
UniProt P30989, whole entry: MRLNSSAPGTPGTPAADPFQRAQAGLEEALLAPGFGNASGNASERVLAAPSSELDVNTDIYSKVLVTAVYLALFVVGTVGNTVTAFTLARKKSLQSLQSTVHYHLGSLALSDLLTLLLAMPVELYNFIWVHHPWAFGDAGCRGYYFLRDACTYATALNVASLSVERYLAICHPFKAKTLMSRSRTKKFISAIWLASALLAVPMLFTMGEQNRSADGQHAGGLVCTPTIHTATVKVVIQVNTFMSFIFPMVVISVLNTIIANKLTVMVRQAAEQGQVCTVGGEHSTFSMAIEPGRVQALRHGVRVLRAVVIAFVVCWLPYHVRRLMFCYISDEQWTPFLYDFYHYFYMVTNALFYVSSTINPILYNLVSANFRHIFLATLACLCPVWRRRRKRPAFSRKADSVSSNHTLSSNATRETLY

Target: T1, human NTS1R (Homo sapiens, UniProt P30989)
T1 construct: Cell membrane homogenates from WiDr cells were collected; host or cells: WiDr human colorectal adenocarcinoma cells (membrane homogenates)
Set-up: method as in PMID 16854083
Conditions: unmodified DT1, WiDr cell membranes; cited from earlier work

Question: Which IC50 does the source give for “N4-Gly-Arg-Arg-Pro-Tyr-Ile-Leu-OH (GRRPYIL) [DT1, N4-Gly^7-NT(8-13); N4 = 6-(carboxy)-1,4,8,11-tetraazaundecane]” here?
Answer: The IC50 was 140 ± 10 pM.
